# Experimental data published in PMC4574934, “Gliadin Induces Neutrophil Migration via Engagement of the Formyl Peptide Receptor, FPR1” (PLoS ONE, 2015).
# Entries after “also recorded” stand apart in the source; their conditions may differ.
# What was measured:
# [1] = target: T1, human FPR1 (FPR1-transfected HEK293T cells) (Homo sapiens, UniProt P21462); assay: FPR1 kinetic (saturation) binding by flow cytometry; details: FITC-labeled ligand; binding expressed as mean fluorescence intensity (MFI); 3-5 independent experiments
# T1 construct: Origene cDNA ORF Clone, OriGene Technologies, Rockville, MD; host or cells: HEK293T
# T1 sequence (P21462 1-350): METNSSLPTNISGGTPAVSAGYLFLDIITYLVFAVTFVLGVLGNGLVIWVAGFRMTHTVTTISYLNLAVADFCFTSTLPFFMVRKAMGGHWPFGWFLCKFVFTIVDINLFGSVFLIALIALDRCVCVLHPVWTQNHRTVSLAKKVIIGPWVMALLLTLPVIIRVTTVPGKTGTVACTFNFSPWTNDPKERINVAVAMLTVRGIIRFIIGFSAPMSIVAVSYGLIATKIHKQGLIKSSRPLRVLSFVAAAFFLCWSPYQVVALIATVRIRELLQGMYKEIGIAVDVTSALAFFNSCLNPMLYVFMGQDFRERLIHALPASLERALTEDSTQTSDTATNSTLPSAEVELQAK
# Procedure: (§1) HEK293T cells were transfected with human FPR1 according to the manufacturer’s protocol (Origene cDNA ORF Clone, OriGene Technologies, Rockville, MD). […] Binding kinetics were evaluated by flow cytometric analysis. Specificity of binding of the synthetic gliadin peptide to FPR1 was assessed with the use of FPR1-transfected HEK293T cells. […] Binding was determined by flow cytometry and expressed as mean fluorescence intensity (MFI). The specific binding was calculated as MFIFPR1—MFImock.
# human neutrophils = assay: EZ-TAXIScan chemotaxis assay, human neutrophils; assay type: cell-based; set-up: key to Chemotactic response: moderate (++) response; stronger chemotactic response (+++)
# Procedure: Heparinized venous blood was centrifuged over a Ficoll-Paque PLUS gradient (d = 1.077 g/ml, GE Healthcare, Boston, MA). The sedimented granulocyte/erythrocyte fraction was collected, and erythrocytes were lysed with cold lysis buffer (155 mM NH4Cl, 10 mM KHCO3, 0.1 mM EDTA). Cells were resuspended in HBSS without Ca^2+/Mg^2+ (Thermo Scientific, Tewksbury, MA), and viability and purity were assessed as described above. Viability of neutrophils was >95%, purity was 98–99%.
# Neutrophils were counted and applied in the EZ-TAXIScan chemotaxis assay. […] The EZ-TAXIScan chamber (Effector Cell Institute, Tokyo) was assembled as described by the manufacturer. Cell migration was recorded every 15 seconds for 30 minutes at 37°C in a humidified environmental chamber. Coverslips and chips used in the chamber were coated with 1% BSA at room temperature for 1 hour. All glass coverslips were ultrasonicated and washed before use. Cell migration analysis was conducted with MATLAB software. Cell tracks were subsequently used to compute the chemotaxis index (CI) and speed for each tracked cell at each time step, as well as the average CI and average speed for each experiment.
# [2] = target: T1, human FPR1 (FPR1-transfected HEK293T cells); assay: FPR1 competitive binding assay by flow cytometry; details: FITC-labeled fMet-Leu-Phe at 100 nM; unlabeled gliadin peptide 1 nM to 500 μM
# Procedure: as §1
# [3] = Table 2, peptide 20 ng/mL, 1-3 experiments
# [4] = Table 3, in the presence of cyclosporine H (FPR1 inhibitor), 2-3 experiments
# [5] = Table 3, no cyclosporine H, 2-3 experiments
smiles,measurement,setting,value
CC[C@H](C)[C@H](NC(=O)[C@@H](NC(=O)[C@H](CS)NC(=O)[C@H](Cc1ccc(O)cc1)NC(=O)[C@@H]1CCCN1C(=O)[C@@H]1CCCN1C(=O)[C@@H](NC(=O)[C@H](Cc1ccc(O)cc1)NC(=O)[C@@H](NC(=O)[C@H](CC(N)=O)NC(=O)[C@H](CS)NC(=O)[C@H](CCSC)NC(=O)[C@H](C)NC(=O)[C@@H]1CCCN1C(=O)[C@H](CC(C)C)NC(=O)[C@@H](N)[C@@H](C)O)C(C)C)[C@@H](C)CC)[C@@H](C)O)C(=O)N[C@H](C(=O)N1CCC[C@H]1C(=O)N[C@@H](Cc1ccccc1)C(=O)NCC(=O)O)C(C)C,Bmax,[1],922.4
same,Chemotactic response,human neutrophils; [3],+++
same,Chemotaxis Index (CI),human neutrophils; [3],0.42 ± 0.08
same,Speed,human neutrophils; [3],6.94 ± 0.16 μm/minute
same,"Chemotaxis Index (CI), Cyclosporine H",human neutrophils; [4],0.03 ± 0.01
same,"Speed, Cyclosporine H",human neutrophils; [4],0.34 ± 0.04 μm/minute
same,"Chemotaxis Index (CI), Control",human neutrophils; [5],0.33 ± 0.04
same,"Speed, Control",human neutrophils; [5],6.33 ± 1.10 μm/minute
same,displacement of fMet-Leu-Phe from FPR1-transfected HEK293T cells,[2],could not compete away; also recorded: not capable of displacement
